Values of other authors, collected in patent publication US20260126455A1, “Methods and Dosing Regimens for Preventing or Delaying Onset of Alzheimer's Disease and Other Forms of Dementia and Mild Cognitive Impairment” (priority 2020, published 2026).

Tested on: A7R-transfected SK-N-MC human neuroblastoma cells
Settings: 2 micromolar; cited from earlier work

## O=[As]c1ccccc1 (stereo not shown)
  Block of Abeta42 internalization and accumulation in transfected cells: blocked
